Measurements from US20170275650A1, “ENDOSOMAL ESCAPE DOMAINS FOR DELIVERY OF MACR[…] CELLS” (priority 2014, published 2017).

Tested on: GFPβ1-10 expressing H1299c#G3 cells
Type: cell-based, human
Conditions: FACS FSC/SSC and viable cell number relative to untreated control cells
Excerpt: Cell morphology and cell viability.

Substance | cytotoxicity / morphological changes
RDHMVLHEYVNAAGIT-GGSGGC-(S-S)-CGG-RKKRRQRRR-(PEG)6-GFFFFG [GFPβ11-(S-S)-TAT-P6-FFFF] | adverse effects on cells, causing morphological changes and cell death
RDHMVLHEYVNAAGIT-GGSGGC-(S-S)-CGG-RKKRRQRRR-(PEG)6-GFWG [GFPβ11-(S-S)-TAT-P6-GFWG] | no signs of cytotoxicity
RDHMVLHEYVNAAGIT-GGSGGC-(S-S)-CGG-RKKRRQRRR-(PEG)6-GWWG [GFPβ11-(S-S)-TAT-P6-GWWG] | completely removed cellular toxicity; also recorded: absence of any detectable cytotoxicity
RDHMVLHEYVNAAGIT-GGSGGC-(S-S)-CGG-RKKRRQRRR-(PEG)6-GWWWG [GFPβ11-(S-S)-TAT-P6-GWWWG] | dramatic increase in cytotoxicity that hampered uptake

Entries after “also recorded” stand apart in the source; their conditions may differ.
